Test system: ROCK II
Experiment: Western blotting of ROCK II expression in isolated rat pulmonary artery ring, short-term (acute) hypoxia or normoxia
Assay type: cell-based
Conditions: acute hypoxia; Normoxia 100, Hypoxia 560 ± 21
Experimental: In our in vitro short-term experiment, isolated rat pulmonary artery was grown under normoxia (20% O2) or hypoxia (1% O2) at 37° C. for 24 hrs as was previously done (Wu BN, et al. Int J Immunopathol Pharmacol 24:925, 2011). The heart weight and body weight ratio (HW/BW) of the rats treated with one of SPAAX-1, SPAAX-1 RX complex, Sildenafil or Sildenafil RX complex each measured on the 21st hypoxic day. All animal care and the experimental protocols of this study were approved by the Animal Care and Use Committee of the Kaohsiung Medical University. Male Wistar rats (200-250 g), provided by the National Laboratory Animal Breeding and Research Center (Taipei, Taiwan), were housed under constant temperature and controlled illumination. Food and water were available ad libitum.
Whole right lung tissues of hypoxia-treated and untreated rats were isolated and cut into small strips and placed into an extraction buffer (Tris 10 mM, pH 7.0, NaCl 140 mM, PMSF 2 mM, DTT 5 mM, NP-40 0.5%, pepstatin A 0.05 mM and leupeptin 0.2 mM) for protein extraction, and then centrifuged at 12,500 g for 30 min. To measure the expression levels of the proteins, the total proteins were extracted and Western blotting analysis was performed as described previously (Bivalacqua T J, et al., 2013, TJ PLoSONE 8: e68028. doi:10.1371/journal. pone.0068028). Briefly, the protein extract was boiled to a ratio of 4:1 with a sample buffer (Tris 100 mM, pH 6.8, glycerol 20%, SDS 4% and bromophenol blue 0.2%). Electrophoresis was performed using 10% SDS-polyacrylamide gel (2 hr, 100 V, 40 mA, […] protein per lane). Separated proteins were transferred to PVDF membranes treated with 5% fat-free milk powder to block the nonspecific IgGs (90 min, 100 V) and incubated for one hour with a specific protein antibody. The blot was then incubated with anti-mouse or anti-goat IgG linked to alkaline phosphatase (1:1000) for 1 hr. […]

Structure (SMILES)	ROCK II expression, Pulmonary Artery Ring
CCCc1nn(C)c2c(=O)[nH]c(-c3cc(S(=O)(=O)N4CCN(C)CC4)ccc3OCC)nc12.Cl [Reagent 1003, Sildenafil HCl complex]	228 ± 23
CCCCCCCCC=CCCCCCCCC(=O)O.CCCc1nn(C)c2c(=O)[nH]c(-c3cc(S(=O)(=O)N4CCN(C)CC4)ccc3OCC)nc12 [Reagent 1013, Sildenafil oleate complex]	210 ± 22
CCCc1nn(C)c2c(=O)[nH]c(-c3cc(S(=O)(=O)N4CCN(C)CC4)ccc3OCC)nc12.O=C(O)C(O)C(O)C(=O)O [Reagent 1014, Sildenafil tartarate complex]	220 ± 24

Reference: US20150306107A1, “SAA Derivative Compound Restores eNOS And Inhibits Oxidative Stress-Induced A Diseases In Hypoxia” (JANSFAT BIOTECHNOLOGY CO., LTD., priority 2014, published 2015)
